Key:
F508del/I539T CFTR = F508del/I539T CFTR (Homo sapiens (Human), UniProt P13569, DEL508-508/I539T); assay: YFP-halide influx assay (YHA) I539T; format: cell-based; details: HEK293, 24 h compound, forskolin 10.67 μM + GLPG1837 0.5 μM; read-out: IEC IC50/EC50 (YHA I539T; head over this column printed as YHA G550E)
WT CFTR = WT CFTR (Homo sapiens (Human), UniProt P13569); assay: TruBind back scattering interferometry (BSI) direct binding; details: HEK293 WT CFTR membrane fractions, 4 hours room temperature, one-site binding fit
Description: Backscattering interferometry (BSI) uses light interaction with a microfluidic channel to measure temporal changes in refractive index (RI) that result from changes in target shape and solvation when molecular complexes form.
The TruBind BSI System employs an optical train comprised of a coherent light source (HeNe laser), a microfluidic interferometric channel (object) and a CMOS array (detector). Upon coherent-laser illumination of a microfluidic channel, a highly modulated fringe pattern is produced perpendicular to the channel. Its bright and dark features shift position with changes in the RI of the sample and monitoring this shift forms the basis of BSI. This information can be used to perform label free equilibrium Kd measurements in complex biological matrices […]
For compound testing HEK293 WT CFTR or HEK293 membrane fractions, at final concentration of 10 μg/mL in 50 mM Tris-HCl pH 7.5, 1 mM EDTA with 1.2% DMSO were mixed 1/1 with a serial dilution of the compound, starting from 10 μM, in 50 mM Tris-HCl pH 7.5, 1 mM EDTA with 1.2% DMSO. […] Samples were measured in quadruplicate in dual channel mode which allows the simultaneous measurement of specific, WT CFTR membranes (assay), as well as unspecific, control membranes (reference). […]

Amino acid sequences for entries named in this document (tags omitted). Chains listed by the source or under a name are the forms on record and can include a tag or linker.
UniProt P13569, other isoform, or with tags, fused parts or gaps I539T/del F508-F508: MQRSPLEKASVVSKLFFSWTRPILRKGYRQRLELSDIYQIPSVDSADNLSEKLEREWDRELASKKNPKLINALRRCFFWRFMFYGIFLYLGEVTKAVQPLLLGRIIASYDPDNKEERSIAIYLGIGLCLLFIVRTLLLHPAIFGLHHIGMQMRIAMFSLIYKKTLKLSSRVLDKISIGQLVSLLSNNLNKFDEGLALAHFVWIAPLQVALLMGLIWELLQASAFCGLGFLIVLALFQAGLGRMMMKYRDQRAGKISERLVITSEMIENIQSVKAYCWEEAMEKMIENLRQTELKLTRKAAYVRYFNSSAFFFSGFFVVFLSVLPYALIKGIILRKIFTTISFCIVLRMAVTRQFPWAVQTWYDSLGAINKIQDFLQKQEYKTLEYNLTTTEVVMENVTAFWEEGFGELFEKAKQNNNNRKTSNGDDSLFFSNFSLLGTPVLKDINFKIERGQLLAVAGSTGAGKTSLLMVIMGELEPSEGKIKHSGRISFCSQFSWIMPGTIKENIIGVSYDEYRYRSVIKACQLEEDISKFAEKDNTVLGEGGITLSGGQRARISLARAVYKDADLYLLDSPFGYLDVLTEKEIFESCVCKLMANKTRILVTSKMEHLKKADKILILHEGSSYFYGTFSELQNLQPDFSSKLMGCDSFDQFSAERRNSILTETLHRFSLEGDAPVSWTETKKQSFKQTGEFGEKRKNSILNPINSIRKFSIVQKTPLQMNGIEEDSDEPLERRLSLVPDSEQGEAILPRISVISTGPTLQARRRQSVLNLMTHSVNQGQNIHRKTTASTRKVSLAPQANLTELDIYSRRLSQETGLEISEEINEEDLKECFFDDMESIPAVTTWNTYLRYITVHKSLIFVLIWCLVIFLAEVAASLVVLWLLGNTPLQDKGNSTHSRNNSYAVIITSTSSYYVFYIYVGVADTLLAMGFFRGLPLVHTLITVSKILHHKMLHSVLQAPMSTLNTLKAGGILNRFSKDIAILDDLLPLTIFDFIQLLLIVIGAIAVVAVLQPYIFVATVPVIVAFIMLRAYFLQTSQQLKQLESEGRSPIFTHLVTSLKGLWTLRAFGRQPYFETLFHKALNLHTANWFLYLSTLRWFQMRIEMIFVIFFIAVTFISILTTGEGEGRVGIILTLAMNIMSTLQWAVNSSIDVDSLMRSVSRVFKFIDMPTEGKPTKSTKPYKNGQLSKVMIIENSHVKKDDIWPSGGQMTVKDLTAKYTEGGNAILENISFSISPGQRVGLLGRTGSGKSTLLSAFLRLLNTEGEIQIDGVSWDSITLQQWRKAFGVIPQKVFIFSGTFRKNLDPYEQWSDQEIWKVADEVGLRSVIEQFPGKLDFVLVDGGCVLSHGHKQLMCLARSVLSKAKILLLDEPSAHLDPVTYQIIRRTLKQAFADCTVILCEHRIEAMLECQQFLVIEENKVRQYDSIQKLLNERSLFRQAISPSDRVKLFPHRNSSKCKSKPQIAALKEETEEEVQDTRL
UniProt P13569, whole entry: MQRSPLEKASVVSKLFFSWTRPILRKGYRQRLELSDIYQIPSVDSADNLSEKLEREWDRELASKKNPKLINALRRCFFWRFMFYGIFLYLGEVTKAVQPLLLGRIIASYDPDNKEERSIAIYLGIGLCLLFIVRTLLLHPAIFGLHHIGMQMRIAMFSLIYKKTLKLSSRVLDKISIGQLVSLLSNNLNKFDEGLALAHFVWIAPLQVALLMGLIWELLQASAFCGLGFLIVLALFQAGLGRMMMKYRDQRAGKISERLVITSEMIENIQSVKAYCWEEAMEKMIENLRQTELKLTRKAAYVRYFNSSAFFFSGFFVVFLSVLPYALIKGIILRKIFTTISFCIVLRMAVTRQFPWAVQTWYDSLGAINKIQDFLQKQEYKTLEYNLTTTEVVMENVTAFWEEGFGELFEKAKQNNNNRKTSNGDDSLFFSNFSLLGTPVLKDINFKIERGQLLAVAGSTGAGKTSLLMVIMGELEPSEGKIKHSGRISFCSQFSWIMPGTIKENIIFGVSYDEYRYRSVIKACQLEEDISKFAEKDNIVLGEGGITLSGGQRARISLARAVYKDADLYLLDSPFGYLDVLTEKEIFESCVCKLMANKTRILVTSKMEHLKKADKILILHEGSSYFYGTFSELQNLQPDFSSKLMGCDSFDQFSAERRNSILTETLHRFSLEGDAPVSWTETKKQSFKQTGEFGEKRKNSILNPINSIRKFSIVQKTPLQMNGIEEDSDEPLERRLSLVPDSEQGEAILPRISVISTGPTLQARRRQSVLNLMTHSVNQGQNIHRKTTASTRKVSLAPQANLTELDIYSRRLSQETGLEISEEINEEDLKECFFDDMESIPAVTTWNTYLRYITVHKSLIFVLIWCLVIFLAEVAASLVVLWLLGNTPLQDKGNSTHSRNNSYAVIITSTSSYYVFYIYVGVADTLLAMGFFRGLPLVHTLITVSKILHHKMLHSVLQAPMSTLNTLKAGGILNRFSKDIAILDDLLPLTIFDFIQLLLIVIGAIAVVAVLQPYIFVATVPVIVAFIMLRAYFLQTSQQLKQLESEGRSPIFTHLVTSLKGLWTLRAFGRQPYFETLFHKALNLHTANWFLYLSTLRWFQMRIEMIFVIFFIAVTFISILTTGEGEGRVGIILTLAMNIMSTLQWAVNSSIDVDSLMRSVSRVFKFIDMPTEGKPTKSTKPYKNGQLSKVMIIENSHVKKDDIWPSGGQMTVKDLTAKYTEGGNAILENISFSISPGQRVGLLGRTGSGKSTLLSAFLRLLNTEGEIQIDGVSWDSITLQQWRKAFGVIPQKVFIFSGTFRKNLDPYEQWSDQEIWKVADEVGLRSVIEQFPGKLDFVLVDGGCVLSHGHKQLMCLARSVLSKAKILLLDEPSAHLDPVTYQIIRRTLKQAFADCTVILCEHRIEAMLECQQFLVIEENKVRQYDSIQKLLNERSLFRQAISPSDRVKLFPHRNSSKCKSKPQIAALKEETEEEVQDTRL

SMILES	EC50 (F508del/I539T CFTR) [nM]	Kd (WT CFTR) [nM]
CS(=O)(=O)NC(=O)c1cc(-c2ccc(N3CCC(C#N)CC3)nc2)c2c(C3CCC3)nn(-c3ccccc3)c2n1 [drawing 7]	496	–
CS(=O)(=O)NC(=O)c1cc(-c2ccc(N3CCC(C#N)CC3)nc2)c2c(C3CCC3)nn(-c3ccccc3)c2n1 [drawing 9]	–	20.2 ± 4.8

Reference: patent US10130622B2, “Compounds for treatment of cystic fibrosis” (AbbVie S.à.r.l., priority 2015, dated 2018)
